# Results taken from patent US5731334A, “Method for treating cancer using taxoid onium salt prodrugs” (priority 1995, dated 1998).
# What was measured:
# [1] = system: PC-3 prostate carcinoma cells; assay: XTT dye binding cytotoxicity assay, PC-3; format: cell-based; conditions: Homo sapiens, 72 h
# Protocol: All cell lines described herein were obtained from the ATCC and maintained in media formulations as recommended by the supplier. The cell lines were tested for mycoplasma contamination prior to incubation at 37° C. in 5% carbon dioxide. Normal human dermal fibroblasts, peripheral blood lymphoblasts and mammary epithelial cells were obtained from Clonogenic Cor., San Diego, Calif. and were maintained under the above incubation conditions in special media provided by the supplier.
# Antiproliferative activities of the onium salts were determined using the XTT dye binding assay. Cells were harvested with trypsin/EDTA (Irvine Scientific), washed, resuspended in the appropriate medium, and counted in a hemocytometer using Trypan Blue to determine viability. Then 10^4 cells/well were added to 96 well microtiter plates and incubated for 24 hours before addition of drug at concentrations in the range of 10^-4 to 10^-13 molar by direct addition from DMSO solutions. After 72 hours, XTT binding dye was added and incubation was continued for 4 hours. The inhibition of cell proliferation was quantified using a Molecular Devices Microplate Reader. The absorbance of XTT was measured at […]. The concentration of drug which inhibited growth of cells by 50% was calculated from duplicated determinations.
# [2] = human
# B 16 melanoma = conditions: relative to taxol; cited from earlier work
# [3] = cited from earlier work
compound,measurement,setting,value
"CC(=O)O[C@@]12CO[C@@H]1C[C@H](O)[C@@]1(C)C(=O)[C@H](O)C3=C(C)[C@@H](OC(=O)[C@H](O)[C@@H](NC(=O)OC(C)(C)C)c4ccccc4)C[C@@](O)([C@@H](OC(=O)c4ccccc4)[C@H]21)C3(C)C [Compound 5, N-debenzoyl-N-tert-butoxycarbonyl-10-deacetyl Taxol, reference compound]",cytotoxicities higher than taxol or its onium salts,tumor cell lines,~10
same,IC50,[1],0.46 nM
same,Plasma Stability % EtAc extractable,[2],95%
same,in vivo activity on B 16 melanoma,B 16 melanoma,better in vivo activity on B 16 melanoma
same,recommended dose,[3]; every 3 weeks,100 mg/m^2
same,dose beyond which alopecia was observed in the majority of patients,[3]; in vivo,> 70 mg/m^2
same,dose beyond which delayed and cumulative skin reactions occurred,[3]; in vivo,> 70 mg/m^2
